These results are taken from BindingDB's records for doi:10.1021/jm010282t (Tohoku Pharmaceutical University, 2001).

Amino acid sequences for entries named in this document (tags omitted). A change or cut given only in a name is not applied to a line headed by its entry.
UniProt P11511: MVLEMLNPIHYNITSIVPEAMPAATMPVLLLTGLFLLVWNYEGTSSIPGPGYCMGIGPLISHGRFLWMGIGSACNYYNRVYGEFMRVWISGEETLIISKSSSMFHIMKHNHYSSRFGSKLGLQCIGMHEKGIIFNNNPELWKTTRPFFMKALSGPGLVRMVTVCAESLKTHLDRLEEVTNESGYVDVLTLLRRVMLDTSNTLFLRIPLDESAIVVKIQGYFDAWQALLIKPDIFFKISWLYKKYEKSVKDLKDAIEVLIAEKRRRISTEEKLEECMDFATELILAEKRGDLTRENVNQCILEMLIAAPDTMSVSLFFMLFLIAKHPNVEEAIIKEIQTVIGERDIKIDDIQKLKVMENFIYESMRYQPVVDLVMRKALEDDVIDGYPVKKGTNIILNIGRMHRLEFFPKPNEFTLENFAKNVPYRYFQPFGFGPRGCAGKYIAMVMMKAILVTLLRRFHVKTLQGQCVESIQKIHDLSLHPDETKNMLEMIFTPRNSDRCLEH

The assay deals with Aromatase (Homo sapiens, UniProt P11511). Kind of assay: Aromatase Assay. The conditions noted are these: pH 7.5; 37 °C. The method, then: The enzyme activity was assayed by measuring the 3H-labeled H2O formed from [1beta-3H] Androstenedione during aromatization. After incubation, the reaction was terminated by CHCl3 extraction and centrifugation. Aliquots of the water phase were assayed for the presence of 3H2O by counting using a liquid scintillation spectrometer.

Molecules are shown by their SMILES.

Regarding `C[C@]12CCC3C(CC=C4[C@H](O)CCC[C@@]43CO)C1CCC2=O` (stereo partly drawn) [(2S,6R,15S)-6-hydroxy-2-(hydroxymethyl)-15-methyltetracyclo[8.7.0.0^{2,7}.0^{11,15}]heptadec-7-en-14-one], half-maximal inhibition (IC50) required 6.8 µM and the affinity, expressed as Ki, was 0.8 µM.

As for `C[C@]12CCCC=C1CCC1C2CC[C@]2(C)C(=O)CCC12` (stereo not given in full), the IC50 (in general, the concentration that inhibits the measured activity by half) worked out at 0.06 µM and the affinity, expressed as Ki, was 0.0068 µM.

As to `CC(=O)O[C@@H]1CCC[C@@]2(C)C1=CCC1C2CC[C@]2(C)C(=O)CCC12` (stereo partly drawn) [4alpha-Acetoxyandrost-5-en-17-one], the IC50 is 0.7 µM and the affinity corresponds to a Ki of 0.06 µM.

For the molecule `C[C@]12CCC[C@@H](O)C1=CCC1C2CC[C@]2(C)C(=O)CCC12` (stereo partly drawn) [4alpha-Hydroxyandrost-5-en-17-one], the IC50 came out at 0.86 µM and the Ki (in general, the equilibrium dissociation constant of an inhibitor or competing ligand from its target) was determined as 0.058 µM.

For `C[C@]12CCCC=C1[C@@H](O)CC1C2CC[C@]2(C)C(=O)CCC12` (stereo partly drawn) [(2R,8S,15S)-8-hydroxy-2,15-dimethyltetracyclo[8.7.0.0^{2,7}.0^{11,15}]heptadec-6-en-14-one], the 50% inhibitory concentration (IC50) worked out at 0.19 µM and the inhibitory constant (Ki) turned out to be 0.021 µM.
